From patent US4749694A, “Novel lysine esters used as absorption” (Merck & Co., Inc., priority 1984, dated 1988)

Test: Absorption of No. 363,586 with or without alcohol-lysine esters in rats, percent bioavailability versus intravenous (Example 7)
Conditions: 0.1 mg No. 363,586 ± 5.0 mg alcohol-lysine ester, 250 μl, pH 6, versus intravenous

Substance: cyclo-(N-Ala-Tyr-D-Trp-Lys-Val-Phe)acetate [No. 363,586]
- Percent No. 363,586 Bioavailability (mean ± SE), Duodenal (duodenal): 1%
- Percent No. 363,586 Bioavailability (mean ± SE), Rectal (rectal): 7 ± 3.5%
